From patent US10898481B2 (priority 2018, dated 2021)

Amino acid sequences for entries named in this document (tags omitted). A change or cut given only in a name is not applied to a line headed by its entry.
UniProt P29275: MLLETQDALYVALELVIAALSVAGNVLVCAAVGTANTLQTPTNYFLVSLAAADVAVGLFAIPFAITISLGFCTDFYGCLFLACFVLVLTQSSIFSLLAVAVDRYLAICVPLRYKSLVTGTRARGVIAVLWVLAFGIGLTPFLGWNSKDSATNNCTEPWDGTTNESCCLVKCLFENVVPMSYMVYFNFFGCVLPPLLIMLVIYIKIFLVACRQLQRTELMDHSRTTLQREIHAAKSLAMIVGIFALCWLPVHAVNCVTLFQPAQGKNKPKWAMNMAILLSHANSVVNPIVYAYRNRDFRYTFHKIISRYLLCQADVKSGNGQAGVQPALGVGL
UniProt Q60613, whole entry: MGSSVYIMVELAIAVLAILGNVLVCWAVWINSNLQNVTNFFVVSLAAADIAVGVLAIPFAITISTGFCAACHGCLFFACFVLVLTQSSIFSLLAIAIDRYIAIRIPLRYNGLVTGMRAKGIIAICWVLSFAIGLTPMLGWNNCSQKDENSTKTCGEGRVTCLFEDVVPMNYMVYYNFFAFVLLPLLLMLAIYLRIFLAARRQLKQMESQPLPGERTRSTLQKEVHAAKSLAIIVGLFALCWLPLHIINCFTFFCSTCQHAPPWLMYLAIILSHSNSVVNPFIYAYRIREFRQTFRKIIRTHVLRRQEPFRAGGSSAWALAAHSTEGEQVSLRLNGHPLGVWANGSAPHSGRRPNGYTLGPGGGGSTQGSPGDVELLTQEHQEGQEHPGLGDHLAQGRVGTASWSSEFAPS
UniProt P0DMS8, whole entry: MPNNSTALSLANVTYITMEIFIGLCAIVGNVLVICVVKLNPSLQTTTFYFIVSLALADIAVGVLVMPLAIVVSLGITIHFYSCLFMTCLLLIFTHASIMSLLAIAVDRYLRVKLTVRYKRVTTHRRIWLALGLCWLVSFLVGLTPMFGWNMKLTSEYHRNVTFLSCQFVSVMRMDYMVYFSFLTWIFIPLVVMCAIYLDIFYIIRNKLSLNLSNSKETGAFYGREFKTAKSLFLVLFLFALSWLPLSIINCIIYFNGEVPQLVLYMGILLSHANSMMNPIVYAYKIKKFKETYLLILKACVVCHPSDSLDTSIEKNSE

Columns and labels:
hA2a = hA2a (Homo sapiens (Human), UniProt P29274); assay: Radioligand binding to hA2a membrane with [3H]-CGS21680; settings: read-out: Binding Affinity (IC50 nM) hA2a
From the text: The empty boxes in the tables below indicate data not collected yet.

hA2b/CHO = hA2b/CHO (Homo sapiens (Human), UniProt P29275); assay: cAMP inhibition assay in hA2b/CHO cells, 10 μM adenosine; format: cell-based; settings: read-out: cAMP & FLIPR IC50 (nM) hA2b;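 further: cells exposed to compound 30 min at 37 °C, then stimulated with adenosine a further 30 min, cAMP read after 60 min at room temperature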
mA2a/CHO = mA2a/CHO (Mus musculus (Mouse), UniProt Q60613); assay: cAMP inhibition assay in mA2a/CHO cells, 10 μM adenosine; format: cell-based; settings: read-out: cAMP & FLIPR IC50 (nM) mA2a;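 further: compounds preincubated 30 min at 37 °C before the adenosine challenge, then 30 min further stimulation, readout after 60 min detection reagent incubation at room temperature in 384-well plates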
hA3/CHO = hA3/CHO (Homo sapiens (Human), UniProt P0DMS8); assay: cell-based
Protocol: hA2a/CHO, hA2b/CHO, hA3/CHO and mA2a/CHO (Genscript) were plated at 5×10^3 cells/well into 384-well polystyrene plates at the day of experiment. Compounds were pre-incubated with cells for 30 min at 37° C., 5% CO2. Then 10 μM adenosine was added to the cells and incubated for 30 min at 37° C., 5% CO2. Detection reagent (CISBIO) was added and the plates were incubated for 60 min at room temperature. The signal was captured by Envision.

hA2a/CHO = hA2a/CHO (Homo sapiens (Human), UniProt P29274); assay: cAMP inhibition assay in hA2a/CHO cells, 10 μM adenosine; format: cell-based; settings: read-out: cAMP & FLIPR IC50 (nM) hA2a;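 further: compounds added to cells 30 min ahead of adenosine, then a further 30 min at 37 °C with adenosine before cAMP detection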

IC50 (hA2a): 2.4 nM | IC50 (hA2b/CHO): 3170 nM | IC50 (mA2a/CHO): 272 nM | IC50 (hA3/CHO): ≥ 10 µM | IC50 (hA2a/CHO): 61 nM
Structure (SMILES): Cn1cc(-c2nc(CNC(=O)c3c(F)cccc3F)c(N)nc2-c2ccc(F)cc2)ccc1=O [Example 88, N-((3-amino-5-(4-fluorophenyl)-6-(1-methyl-6-oxo-1,6-dihydropyridin-3-yl)pyrazin-2-yl)methyl)-2,6-difluorobenzamide]
